The list shows a part of the results, in another mix than the full data. Results filed as inconclusive are left out. Calls of active or inactive are those of the source. Cut-off read from the data, not from the text of the source: active = max dye-equivalent concentration above about 10 nM; inconclusive = mostly about 1.1 nM to 9.6 nM; inactive = weaker than that.
assay: qHTS Assay for Spectroscopic Profiling in A350 Spectral Region; details: Compound autofluorescence, 340/450 nm, Alexa 350 dye-equivalents; stronger effect = higher value
Source text: NIH Molecular Libraries Screening Centers Network [MLSCN]
NIH Chemical Genomics Center [NCGC]
Occasionally, the artifactual effect may originate from the compounds own spectral or other biophysical properties which generally tend to track its assay concentration. Pre-screening/profiling the library with respect to the compounds spectral properties should help one exclude false positives early on. While the most informative fluorescent profiling data set is obtained by performing a full excitation and emission scan of each well by using a monochromator-based plate reader, such an approach is practical only on a very limited scale as scanning each well requires long time. An alternative approach, applied here, is to perform plate reader scans using selected excitation and emission wavelength pairs to generate a multidimensional relational database that correlates compound concentration and the respective relative fluorescence intensity at a given wavelength set. A standard curve of Alexa 350 (A 350) present on each plate as six-point concentration series, was used to compute a normalized fluorescence response, termed dye-equivalent concentration, for each compound at each concentration.
NCGC Assay Protocol Summary:
100 mM Tris buffer, pH 8.0 […]

SMILES	max dye-equivalent concentration
COP1(=S)c2c(C)nn(CCC#N)c2N=C(c2ccc(F)cc2)N1C (configuration not stated)	active: 140 nM
CN1CCC[C@H](OC(=O)C(c2ccccc2)c2ccccc2)C1	active: 10 nM
